# Entries after “also recorded” stand apart in the source; their conditions may differ.
# Legend:
# HT-29 cells [1] = assay: Clonogenic assay (cell kill / cloning efficiency), HT-29; assay type: cell-based, human; settings: alpha-2a-interferon alone
# SW480 cells [2] = assay: Clonogenic assay (cell kill / cloning efficiency), SW480; assay type: cell-based, human; settings: alpha-2a-interferon alone
# HT-29 cells [3] = assay: Cytokinetic studies (cell cycle distribution by flow cytometry), HT-29; assay type: cell-based, human; settings: alpha-2a-interferon alone
# SW480 cells [4] = assay: Cytokinetic studies (cell cycle distribution by flow cytometry), SW480; assay type: cell-based, human; settings: data not shown
substance,measurement,setting,value
alpha-2a-interferon: recombinant alpha-2a-interferon,cell kill,HT-29 cells [1],less than 40%
same,cell kill,SW480 cells [2],less than 40%
same,effect on cell cycle distribution,HT-29 cells [3],only minimal effects on cell cycle distribution
same,predominant effect on cell cycle (S phase),HT-29 cells [3]; 2 hours and 7 hours,a transient block in S phase at 2 hours which almost completely reversed by 7 hours
same,effect on cell cycle versus HT-29,SW480 cells [4]; 5-fluorouracil and alpha-2a-interferon alone or in combination,qualitatively identical effects
same,prolongation of the block in G0/G1,SW480 cells [4],24 h
same,adverse events leading to removal from study,temporally associated with alpha-2a-interferon,partial complex seizure after the first dose; also recorded: bronchospastic episodes
same,worsening of performance status,"while on alpha-2a-interferon, by one or two levels",Nearly half the patients
